{"source": "patent US9814784B2", "about": "“Antibody-linker-drug conjugate, preparation method therefor, and anticancer drug composition containing same” (priority 2013, dated 2017)", "key": {"[1]": {"test": "Pharmacokinetic (PK) assay", "set-up": "species or system Balb/c Slc-nu mice", "conditions": "mouse, in vivo, iv, 20 mg/kg"}, "[2]": {"system": "HER-2-overexpressing breast cancer cells (BT-474)", "test": "Efficacy study in animal model (xenograft)", "format": "in vivo, nude mice", "conditions": "single i.v. injection, trastuzumab vs PBS", "procedure": "For 56 days after injection, the volumes and final weights of the tumors were monitored.\n(§1) Separately, the antibody-linker-drug conjugate (I-16), prepared in Preparation Examples 12, was intravenously injected once at three different doses (0.05, 0.5, and 5 mg/kg) into nude mice which were previously xenografted with HER-2-overexpressing breast cancer cells (BT-474). For 28 days after injection, volumes and final weights of the tumors were monitored.\nas §1, with “In addition,” for “Separately,”, “conjugates (I-23), (1-25), and (I-26),” for “conjugate (I-16),”, “prepared respectively” for “prepared”, “19, 21, and 22, were” for “12, was”, “injection, the” for “injection,”\nIn another experiment, nude mice xenografted with HER-2-overexpressing breast cancer cell line (BT-474) were intravenously injected once with three difference doses (0.05, 0.5, and 5 mg/kg) of the antibody-linker-drug conjugate (I-34), prepared in Preparation Example 30. For 28 days after injection, the volumes and final weights of the tumors were monitored."}}, "note": "“Also recorded” adds a separate entry of the source.", "data": [{"substance": "trastuzumab", "values": [{"measurement": "C0", "setting": "[1]", "result": 379.9, "unit": "µg/mL"}, {"measurement": "tumor size (volume and final weight)", "setting": "[2]; conjugates 0.05, 0.5 and 5 mg/kg, trastuzumab 5 mg/kg, 28 days", "result": "significantly reduced tumor sizes; also recorded: significant reduction in tumor size"}, {"measurement": "tumor size (volume and final weight)", "setting": "[2]; conjugates 1.25, 5 and 20 mg/kg, trastuzumab 20 mg/kg, 56 days", "result": "reduced significantly"}]}]}
